The values that follow come from article PMC4537131, “Bispyridinium Compounds Inhibit Both Muscle and Neuronal Nicotinic Acetylcholine Receptors in Human Cell Lines” (2015).

The chains behind the UniProt entries cited, without tags or fusion partners. Residues count along the entry.
UniProt P22303, 32-617 isoform 2 limits assumed: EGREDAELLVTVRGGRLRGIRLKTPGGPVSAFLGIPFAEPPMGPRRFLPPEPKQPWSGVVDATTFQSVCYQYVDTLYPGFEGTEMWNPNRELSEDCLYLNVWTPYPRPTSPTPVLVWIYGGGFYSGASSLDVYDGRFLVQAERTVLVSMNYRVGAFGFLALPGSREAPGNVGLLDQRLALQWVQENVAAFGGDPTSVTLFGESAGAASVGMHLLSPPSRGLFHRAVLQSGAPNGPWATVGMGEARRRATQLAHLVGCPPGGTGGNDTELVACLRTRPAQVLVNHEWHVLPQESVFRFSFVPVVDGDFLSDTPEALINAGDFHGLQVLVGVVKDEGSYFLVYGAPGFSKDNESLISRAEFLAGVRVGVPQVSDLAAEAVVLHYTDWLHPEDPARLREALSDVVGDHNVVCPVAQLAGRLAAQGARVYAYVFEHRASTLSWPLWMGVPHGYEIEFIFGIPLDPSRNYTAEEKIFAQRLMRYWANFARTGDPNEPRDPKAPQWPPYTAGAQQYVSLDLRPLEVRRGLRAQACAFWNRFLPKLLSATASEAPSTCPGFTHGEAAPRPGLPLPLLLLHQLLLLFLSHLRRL

Each structure is given as a SMILES string. pIC50: −log10 of the molar value. Read-outs that look alike come from different tables or passages of the source.

As a reminder, the Hill slope is the slope factor of the fitted curve. In general, pIC50 refers to the negative decadic logarithm of the IC50, by convention in mol/L.

Series [1] has as its system mice. The conditions noted are these: dibromide salt variants of the MB compounds, tested form: diiodide; cited from earlier work.
In series [2] the test system is human muscle nicotinic receptor (CN21 cells). Briefly: Nicotinic calcium response assay in CN21 cells (Fluo-4, FlexStation). The conditions noted are these: tested form: diiodide; for Log IC50 (M), inhibition of nicotinic response: ACh 10 μM with atropine 20 μM, value is log10 of IC50, mean ± SEM; for Hill slope: ACh 10 μM, mean ± SEM.
Series [3] deals with neuronal nicotinic receptor (SH-SY5Y cells). Briefly: Nicotinic calcium response assay in SH-SY5Y cells (fura-2, Fluostar Optima). The conditions noted are these: nicotine 50 μM, tested form: diiodide; for Hill slope: mean ± SEM; for Log IC50 (M), inhibition of nicotinic response: value is log10 of IC50, mean ± SEM.
For series [4], the target named is human acetylcholinesterase (Homo sapiens, UniProt P22303). Briefly: Acetylcholinesterase inhibition assay (modified Ellman, erythrocyte ghosts). The conditions noted are these: for Log AChE IC50 (M): value is log10 of IC50, tested form: diiodide. (DTNB colorimetry detects thiols as they appear.)
Setting [5] is: read-out: AChE IC50, 5 min incubation, pH 7.4, 37°C, tested form: diiodide.

In the case of `c1cc[n+](CCCCCCCCCC[n+]2ccccc2)cc1`, the LD50 iv mice in series [1] is 15 mg/kg. Also, the “Log IC50 (M), inhibition of nicotinic response” value (shortened to “Log IC50 (M), inhibition”) in series [2] is -6.05 ± 0.17 M; in series [3] it was -5.78 ± 0.03 M. Also, the results for the Hill slope in series [2], in series [2] (listed as C10) and in series [3] were -1.34 ± 0.14, -1.5 and -1.28 ± 0.09, respectively. For the same compound, the pIC50 is 6.30 in series [4] (setting [5]) and > 6.00 in series [4] (read-out: AChE IC50, 5 min incubation, pH 7.4, 37°C, tested form: diiodide, listed as C10). Also, the “Log AChE IC50 (M)” value in series [4] is on record as -6.30 M.

`c1cc[n+](CCCC[n+]2ccccc2)cc1`: in series [1], the LD50 iv mice is 55 mg/kg. Besides, in series [2], the “Log IC50 (M), inhibition” value was -2.51 ± 0.15 M and the Hill slope is -0.72 ± 0.05. Further, in series [3], the Hill slope is on record as -1.81 ± 0.26 and the “Log IC50 (M), inhibition” value is given as -3.27 ± 0.04 M. In series [4] (setting [5]), the pIC50 is < 3.00. Also, in series [4], the “Log AChE IC50 (M)” value is given as >-3 M.

With `c1cc[n+](CC[n+]2ccccc2)cc1`, the LD50 iv mice in series [1] is 225 mg/kg. In addition, in series [2], the “Log IC50 (M), inhibition” value is given as -2.06 ± 0.04 M and the Hill slope is -0.75 ± 0.06. Also, the pIC50 in series [4] (setting [5]) is < 3.00. Moreover, in series [4], the “Log AChE IC50 (M)” value is on record as >-3 M.

Consider `c1cc[n+](CCC[n+]2ccccc2)cc1`, for which the LD50 iv mice in series [1] was 180 mg/kg. The Hill slope in series [2] is -0.73 ± 0.06. Also, the pIC50 in series [4] (setting [5]) was < 3.00. Besides, in series [4], the “Log AChE IC50 (M)” value was >-3 M.

Turning to `c1cc[n+](CCCCCCCC[n+]2ccccc2)cc1`, the “Log IC50 (M), inhibition” value is -5.30 ± 0.20 M in series [2] and -4.76 ± 0.03 M in series [3]. The Hill slope in series [2] is reported as -0.99 ± 0.07; in series [3] it was -1.74 ± 0.22. In addition, in series [4] (setting [5]), the pIC50 was 5.85. The “Log AChE IC50 (M)” value in series [4] is -5.85 M.

`c1cc[n+](CCCCCC[n+]2ccccc2)cc1`: the LD50 iv mice in series [1] is 26 mg/kg. In addition, in series [2], the “Log IC50 (M), inhibition” value is -3.50 ± 0.32 M and the Hill slope is -0.50 ± 0.02. For the same compound, in series [3], the Hill slope is -1.88 ± 0.24 and the “Log IC50 (M), inhibition” value is listed as -4.54 ± 0.04 M. Besides, the negative-log IC50 (pIC50) in series [4] (setting [5]) was 4.15. The “Log AChE IC50 (M)” value in series [4] is -4.15 M.

Turning to `c1cc[n+](CCCCCCCCC[n+]2ccccc2)cc1`, the results for the “Log IC50 (M), inhibition” value in series [2] and in series [3] were -5.94 ± 0.11 M and -5.38 ± 0.04 M, respectively. The Hill slope in series [2] was -1.56 ± 0.11; in series [2] (listed as C9), -1.5; in series [3] it was -1.66 ± 0.20. Moreover, the negative logarithm of the IC50 (pIC50) in series [4] (setting [5]) is 6.70; in series [4] (read-out: AChE IC50, 5 min incubation, pH 7.4, 37°C, tested form: diiodide, listed as C9), > 6.00. The “Log AChE IC50 (M)” value in series [4] is -6.70 M.

In the case of `c1cc[n+](CCCCCCC[n+]2ccccc2)cc1`, the results for the “Log IC50 (M), inhibition” value in series [2] and in series [3] were -4.81 ± 0.23 M and -4.43 ± 0.05 M, respectively. Further, the Hill slope in series [2] is -0.72 ± 0.01; in series [3], -1.80 ± 0.30. For the same compound, the pIC50 in series [4] (setting [5]) was 4.70. The “Log AChE IC50 (M)” value in series [4] is -4.70 M.

On to `c1cc[n+](CCCCC[n+]2ccccc2)cc1`, for which the LD50 iv mice in series [1] was 32 mg/kg. In addition, in series [2], the Hill slope is recorded as -0.60 ± 0.13. Also, in series [3], the Hill slope is -2.10 ± 0.40 and the “Log IC50 (M), inhibition” value is -4.01 ± 0.04 M. Besides, the negative-log IC50 (pIC50) in series [4] (setting [5]) is 3.15. Moreover, the “Log AChE IC50 (M)” value in series [4] was -3.15 M.
